The values below come from patent US5521088A, “Alcohol acetyltransferase genes and use thereof” (Kirin Beer Kabushiki Kaisha, priority 1992, dated 1996).

By UniProt entry, the sequences of proteins in these tests, tags left out. Where a name states a change or a piece, a line headed by the entry shows the natural chain unless it says otherwise.
UniProt P40353: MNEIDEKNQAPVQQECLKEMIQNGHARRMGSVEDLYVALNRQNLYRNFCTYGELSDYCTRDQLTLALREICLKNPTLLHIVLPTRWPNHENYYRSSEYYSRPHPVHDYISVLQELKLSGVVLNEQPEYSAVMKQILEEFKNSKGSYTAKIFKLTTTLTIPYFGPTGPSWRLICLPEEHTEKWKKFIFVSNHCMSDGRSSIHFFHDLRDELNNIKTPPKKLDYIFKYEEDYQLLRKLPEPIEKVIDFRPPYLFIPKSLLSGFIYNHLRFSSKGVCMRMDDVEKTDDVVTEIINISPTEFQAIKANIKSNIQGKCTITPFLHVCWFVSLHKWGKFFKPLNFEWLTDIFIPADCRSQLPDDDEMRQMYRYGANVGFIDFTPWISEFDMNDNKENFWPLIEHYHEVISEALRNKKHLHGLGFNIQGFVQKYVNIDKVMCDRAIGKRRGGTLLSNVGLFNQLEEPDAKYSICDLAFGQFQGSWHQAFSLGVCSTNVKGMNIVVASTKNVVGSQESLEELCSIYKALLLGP

This assay concerns the target AATase (Saccharomyces cerevisiae, UniProt P40353, N391K/T84I). The assay is described as follows: Effects of various inhibitors on AATase enzyme activity. The note with it: inhibitor 1 mM in reaction buffer; None = 100. The class given is biochemical.
For the substance KCl, the “Relative activity (%)” value amounted to 98.6%. The figure for MgCl2 is 86.2%. As for SnCl2, the figure is 52.0%; as for CUSO4, 0%. The figure for NiCl3 is 22.3%; for ZnCl2 it is 12.7%; for MnCl2 it is 53.3%.

Take HgCl2: the “Relative activity (%)” value is on record as 0%. As for BaCl2, the figure is 73.7%. As for FeCl3, the figure is 54.5%; as for CoCl2, 37.6%; as for CdCl2, 3.1%. As for CaCl2, the figure is 87.7%.
